Among the data in PubChem BioAssay AID1490 (National Center for Advancing Translational Sciences (NCATS), 2009) are largest response in the series, negative = inhibition values, retold here.

Structures are written as SMILES. Several values for one entry are separate records, joined by “and”; a condition that tells them apart may be missing. Equal values may be shown once. This is a selection; strong and weak results do not stand in their true shares. Inconclusive results are not listed. Activity calls are given as the source filed them. Calls come from the whole dose curve; as a rule, active = well fitted inhibition curve with a large enough effect; inconclusive = small, poorly fitted or top-dose-only effect, or another doubt; inactive = no such curve, though single readings can be large or run the other way.

For the experiment, the target named is 4'-phosphopantetheinyl transferase ffp (Bacillus subtilis) (UniProt Q9F4F7). The experiment is described as follows: qHTS Assay for Inhibitors of Bacillus subtilis Sfp phosphopantetheinyl transferase (PPTase).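 Note: the enzyme is Sfp with the accession as filed and its product quenches rhodamine fluorescence; 0% = enzyme reaction without inhibitor and -100% = no enzyme wells.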 The settings on record: Biochemical Sfp PPTase activity. Background: qHTS replaces the single test concentration by a dilution series.
`CC(C)C(=O)NC(Sc1ccccc1)C(Cl)(Cl)Cl` (stereo unspecified): the largest response in the series, negative = inhibition is inactive: 37%. The result for `O=P(Nc1nccs1)(c1ccccc1)c1ccccc1` reads inactive: 6.9%; that for `CCN(CCCl)Cc1ccccc1C`, inactive: -5.23%. Consider `O=[N+]([O-])c1cc([N+](=O)[O-])c(CCNc2ccccc2)c([N+](=O)[O-])c1`, for which the largest response in the series, negative = inhibition is inactive: -17%. On to `Cc1ccc(NP(=O)(Oc2ccccc2)Oc2ccccc2)nc1`, for which the largest response in the series, negative = inhibition is inactive: 4.77%. On to `O=C(OCCCN1CCCC1)C(O)(c1ccccc1)C1CCCCC1` (stereo unspecified), for which the largest response in the series, negative = inhibition is inactive: -8.2%. On to `O=[N+]([O-])c1cccc2n[nH]nc12`, for which the largest response in the series, negative = inhibition is inactive: -7.87%. The result for `CC(=O)N1C2C3N(C(C)=O)C1C1N(C(C)=O)C(C(N1C(C)=O)N3C(C)=O)N2C(C)=O` reads inactive: 14.2%; that for `CCN(CC)CC(O)COC(=O)C(O)(c1ccccc1)C1CCCCC1` (stereo unspecified), inactive: 22%; that for `CC1CCN(C(=O)Oc2c(Cl)cc(Cl)c3cccnc23)CC1`, inactive: -10.1%. As to `CC(=O)C1=CCCC2CCC1N2` (stereo unspecified), the largest response in the series, negative = inhibition is inactive: -13% and inactive: 5.41%. As to `CN(C)C(=O)OCCc1n(C)cc[n+]1C`, the largest response in the series, negative = inhibition was inactive: 9.63%. With `CC(C)=N/N=C(\N)N[N+](=O)[O-]`, the largest response in the series, negative = inhibition was inactive: -3.45%.

On to `CCN(/C(=N/P(=O)(N1CCOCC1)N1CCOCC1)N1CCOCC1)c1ccc(OC)cc1`, for which the largest response in the series, negative = inhibition was inactive: 27%. Turning to `Nc1ccc([As](=O)(O)c2ccc(N)cc2)cc1`, the largest response in the series, negative = inhibition was inactive: 4.33%. `O=C(Nc1cc([As](=O)(O)O)ccc1O)c1ccccc1`: the largest response in the series, negative = inhibition was inactive: -16.8%. In the case of `O=C(O)CNc1ccc([As](=O)(O)O)cc1`, the largest response in the series, negative = inhibition was inactive: 11.7%. On to `O=[N+]([O-])c1cccc(NC2=NCC(CBr)S2)c1` (stereo unspecified), for which the largest response in the series, negative = inhibition was inactive: -12.7%. Turning to `O=[N+]([O-])c1ncn(CCn2ncnc2[N+](=O)[O-])n1`, the largest response in the series, negative = inhibition was inactive: 7.47%. On to `Cc1ccc(NP(=O)(Oc2ccccc2F)Oc2ccccc2F)nc1`, for which the largest response in the series, negative = inhibition is inactive: 12.3%. `CCOP(=O)(Nc1ccccc1)OCC`: the largest response in the series, negative = inhibition was inactive: 18.8% and inactive: 3.96%. For the compound `O=P(Nc1nc2ccc(Cl)cc2s1)(c1ccccc1)c1ccccc1`, the largest response in the series, negative = inhibition is inactive: 7.52%. As for `CC(=O)Nc1ccc([As](=O)(O)O)cc1`, the largest response in the series, negative = inhibition is inactive: 8.05%. As to `O=C(O)c1ccccc1[As](=O)(O)O`, the largest response in the series, negative = inhibition is inactive: -5.84%. With `CCN(N=Nc1nonc1N)c1nonc1N`, the largest response in the series, negative = inhibition was inactive: 11.4%.

On to `O=[N+]([O-])c1cc([N+](=O)[O-])c(CCN2CCOCC2)c([N+](=O)[O-])c1`, for which the largest response in the series, negative = inhibition is inactive: -18.5%. As for `CN1CCCC(OC(=O)C(c2ccccc2)c2ccccc2)C1` (stereo unspecified), the largest response in the series, negative = inhibition is inactive: -5.04%. In the case of `Clc1ccc(Cl)c(NC2=NCC(CBr)S2)c1` (stereo unspecified), the largest response in the series, negative = inhibition is inactive: -27.1%. In the case of `CN(C)CCOC(=O)C(O)(c1ccccc1)C1CCCC1` (stereo unspecified), the largest response in the series, negative = inhibition is inactive: -0.974%. Take `Cc1ccc(OP(=O)(Nc2nccs2)Oc2ccc(C)cc2)cc1`: the largest response in the series, negative = inhibition was inactive: 5.36%. `COc1ccccc1OP(=O)(Nc1ccc(C)cn1)Oc1ccccc1OC`: the largest response in the series, negative = inhibition is inactive: 15.1%. In the case of `Cc1ccc(N/C(=N/P(=O)(N2CCOCC2)N2CCOCC2)N2CCOCC2)cc1`, the largest response in the series, negative = inhibition was inactive: 24.4%.

For `NC(=O)c1cc([N+](=O)[O-])cc([N+](=O)[O-])c1N`, the largest response in the series, negative = inhibition is inactive: -0.0536%.

On to `Oc1ccccc1CNc1ccccn1`, for which the largest response in the series, negative = inhibition was inactive: 4.2%.

As to `Nc1cc(N)c2nonc2c1[N+](=O)[O-]`, the largest response in the series, negative = inhibition is inactive: 8.38%. For `CC(C)CC(=O)NC(Sc1ccc(Cl)cc1)C(Cl)(Cl)Cl` (stereo unspecified), the largest response in the series, negative = inhibition was inactive: 16.3%.
